Values quoted from earlier work, collected in US11752199B1, “Methods of modulating pericytes” (MALLINCKRODT ARD IP UNLIMITED COMPANY, priority 2020, dated 2023).

Sequences of proteins named here, by UniProt entry; tags and fusion partners are left off.
UniProt P32245, whole entry, species assumed: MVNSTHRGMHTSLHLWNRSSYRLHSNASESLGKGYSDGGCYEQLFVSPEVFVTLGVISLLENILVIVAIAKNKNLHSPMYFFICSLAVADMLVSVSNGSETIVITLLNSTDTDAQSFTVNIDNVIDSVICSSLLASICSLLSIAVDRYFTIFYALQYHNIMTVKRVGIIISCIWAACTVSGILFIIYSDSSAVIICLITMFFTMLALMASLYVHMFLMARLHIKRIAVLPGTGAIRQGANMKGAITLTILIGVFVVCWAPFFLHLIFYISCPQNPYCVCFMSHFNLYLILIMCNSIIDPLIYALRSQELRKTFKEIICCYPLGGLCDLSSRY

Target: MC4R (Homo sapiens, UniProt P32245)
Conditions: compared with α-MSH

Substance: NDP-α-MSH
- MC4R agonist potency relative to α-MSH: more potent
